# This is a selection; strong and weak results do not stand in their true shares. Activity calls are given as the source filed them.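 How the source made its calls: active means inhibition above a set limit, the mean inhibition across all tested compounds plus 3 SD (cut at about 34% in these data); inactive means the rest.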
# Assay: STAT1 signaling inhibitors, primary screen, cell-based, HTS, luciferase reporter (AID 920);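 further: 0% = IFN-gamma with DMSO and 100% = IFN-gamma with 300 µM nifuroxazide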
# Conditions: NIH 3T3 STAT1-luciferase reporter, IFN-gamma, luminescence; at 5.5 µM; stronger effect = higher value
row,SMILES,inhibition
1,O=[N+]([O-])c1cc([N+](=O)[O-])c(-n2nnc3ccccc32)c([N+](=O)[O-])c1,inactive: 3.32%
2,Cc1nc2ccc3ccccc3c2s1.O=[N+]([O-])c1cc([N+](=O)[O-])c(O)c([N+](=O)[O-])c1,inactive: -10.4%
3,CP(=O)(Nc1ccc(SC(F)(F)F)cc1)Oc1ccccc1 (stereo not drawn),inactive: 8.69%
4,CCCOc1ccc(NP(C)(=O)Oc2ccc(Cl)cc2)cc1 (stereo not drawn),inactive: -2.2%
5,COc1ccccc1OP(C)(=O)Nc1c(C)cccc1C (stereo not drawn),inactive: 3.51%
6,CN1CCCCC1COC(=O)C1(O)c2ccccc2CCc2ccccc21 (stereo not drawn),inactive: 7.59%
7,CC1=NCCc2c1[nH]c1ccccc21.O=[N+]([O-])c1cc([N+](=O)[O-])c(O)c([N+](=O)[O-])c1,inactive: 9.81%
8,Cc1cc(C)cc(OP(C)(=O)Nc2ccc(C)cc2C)c1 (stereo not drawn),inactive: -7.18%
9,CCOC(=O)c1ccc(NP(C)(=O)Oc2cc(C)cc(C)c2)cc1 (stereo not drawn),inactive: -8.27%
10,CP(=O)(Nc1cccc(Br)c1)Oc1ccccc1 (stereo not drawn),inactive: -2.77%
11,Cc1cc(C)cc(OP(C)(=O)Nc2ccccn2)c1 (stereo not drawn),inactive: -10.1%
12,Cc1ccc(C)c(NP(C)(=O)Oc2ccccc2)c1 (stereo not drawn),inactive: -4.64%
13,CCN(CC)CCCOC(=O)C(O)(c1ccccc1)c1ccccc1,inactive: -2.28%
14,CC(C)(C)c1ccc(OP(C)(=O)Nc2ccc(SC(F)(F)F)cc2)cc1 (stereo not drawn),inactive: 4.14%
15,Cc1cccc(C)c1OP(C)(N)=O (stereo not drawn),inactive: 6.41%
16,O=[N+]([O-])c1ccc2c(c1)C=Nc1ccccc1O2,inactive: -3.28%
17,COc1ccccc1OP(C)(=O)Nc1cc(Cl)ccc1C (stereo not drawn),inactive: 6.01%
18,COc1ccc(OP(C)(=O)Nc2cccc(F)c2)cc1 (stereo not drawn),inactive: -6.94%
19,Cc1cc(C)cc(OP(C)(N)=O)c1 (stereo not drawn),inactive: 3.22%
20,CCOC(=O)c1ccc(NP(C)(=O)Oc2ccccc2)cc1 (stereo not drawn),inactive: -1.3%
21,COc1ccccc1OP(C)(=O)Nc1ccc(C)cc1 (stereo not drawn),inactive: 1.54%
22,Cc1ccc(NP(C)(=O)Oc2ccccc2)c(C)c1 (stereo not drawn),inactive: 5.62%
23,COc1ccccc1OP(C)(=O)Nc1ccccc1 (stereo not drawn),inactive: -6.08%
24,CP(=O)(Nc1ccccc1Br)Oc1ccccc1 (stereo not drawn),inactive: 4.39%
25,CP(=S)(Nn1cnnc1)Oc1ccccc1 (stereo not drawn),inactive: 6.65%
26,CP(=O)(NC(=O)Nc1ccccc1)Oc1ccccc1 (stereo not drawn),inactive: 2.51%
27,Cc1cc(C)cc(OP(C)(=O)Nc2ccc(SC(F)(F)F)cc2)c1 (stereo not drawn),inactive: -4.01%
28,Cc1cccc(C)c1OP(C)(=O)Nc1ccc(SC(F)(F)F)cc1 (stereo not drawn),inactive: -4.69%

# Reference: PubChem BioAssay AID920 (The Scripps Research Institute Molecular Screening Center, 2007)
